Experiments:
[1] = molecular target: T1, human A2B adenosine receptor (Homo sapiens, UniProt P29275); test: biochemical; settings: read-out: percent of inhibition, A2B AR
T1 sequence (P29275 1-332): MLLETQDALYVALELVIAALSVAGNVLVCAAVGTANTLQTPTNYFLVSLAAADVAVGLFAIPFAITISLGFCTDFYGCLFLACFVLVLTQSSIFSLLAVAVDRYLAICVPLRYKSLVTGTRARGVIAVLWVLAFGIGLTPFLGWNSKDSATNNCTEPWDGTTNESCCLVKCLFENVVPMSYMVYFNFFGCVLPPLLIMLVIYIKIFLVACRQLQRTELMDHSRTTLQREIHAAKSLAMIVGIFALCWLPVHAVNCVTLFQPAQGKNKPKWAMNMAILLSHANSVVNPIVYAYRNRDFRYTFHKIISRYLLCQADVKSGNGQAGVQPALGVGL

[2] = molecular target: human A2A adenosine receptor (Homo sapiens, UniProt P29274); test: biochemical; settings: read-out: percent of inhibition, A2A AR

OC[C@H]1O[C@@H](n2cnc3c(NCCCc4ccccc4)nc(Cl)nc32)[C@H](O)[C@@H]1O [Compound 24, 6-N-(3-phenylpropyl)-2-chloroadenosine] showed an inhibition at 10 µM [1] of 24 ± 1% and an inhibition at 10 µM [2] of 27 ± 5%.

Source: PMC8448983 (European journal of medicinal chemistry, 2021)
